System: Transformed tobacco plants containing the pJH 121 construct
Assay: NAM spray of transformed tobacco plants containing pJH121 (conditionally lethal phenotype)
Type: in vivo
Settings: 200 ug/mL NAM with 0.1% Tween 20, sprayed to runoff
Experimental: Transformed tobacco plants containing the pJH 121 construct described above are recovered and tested using standard analysis to determine the presence of the inserted vector. […] A solution containing 200 ug/mL of NAM with 0.1% Tween 20 is prepared. Plants were sprayed to runoff using a pressurized sprayer. […] Non-transformed plants are unaffected by the treatment.

Compound: NC(=O)Cc1cccc2ccccc12 [NAM, napthalene acetamide]
- visual phenotype of transformed plants (2 days after spraying): leaves are drooping and the leaf margins curling
- visual phenotype of transformed plants (within 5 days): leaves are twisted and the plant shows typical auxin toxicity

Source: patent US6753459B2, “Transgenic plants and methods for production thereof” (National Research Council of Canada, priority 1998, dated 2004)
